Measurements: PubChem BioAssay AID1216 (Sanford-Burnham Center for Chemical Genomics, 2008)
The list shows a part of the results, in another mix than the full data. Some results for these compounds are left out of this collection, so the calls shown say nothing about other tests. Calls of active or inactive are those of the source.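 How the source made its calls: active means activation factor of 2 or more at 20 µM; inactive means the rest.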

Amino acid sequences for entries named in this document (tags omitted).
UniProt P34949, whole entry: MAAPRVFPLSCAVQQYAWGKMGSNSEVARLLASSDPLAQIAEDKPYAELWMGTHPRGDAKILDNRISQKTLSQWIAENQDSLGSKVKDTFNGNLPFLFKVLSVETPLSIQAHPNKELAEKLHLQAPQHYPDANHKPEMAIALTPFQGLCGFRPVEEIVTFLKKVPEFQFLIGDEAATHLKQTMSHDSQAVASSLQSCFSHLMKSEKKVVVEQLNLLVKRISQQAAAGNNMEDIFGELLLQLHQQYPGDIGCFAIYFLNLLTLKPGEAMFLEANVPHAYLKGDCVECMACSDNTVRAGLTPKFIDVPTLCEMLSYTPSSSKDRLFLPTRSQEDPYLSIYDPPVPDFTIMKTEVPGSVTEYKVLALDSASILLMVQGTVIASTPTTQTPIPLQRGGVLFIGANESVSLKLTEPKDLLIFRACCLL

molecular target: Mannose-6-phosphate isomerase (Homo sapiens) (UniProt P34949); experiment: MPI activation at elevated mannose 6-phosphate – biochemical, fluorescence intensity, near-saturating mannose 6-phosphate, primary screen (AID 1216); conditions: coupled PMI enzyme assay, resazurin fluorescence, 20 min; at 20 µM; active compounds read high; 1 = untreated enzyme, 0 = substrate-free blank
How it was run: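 Technique: Diaphorase-driven resazurin-to-resorufin fluorescence, excitation 544, emission 590 nm | Assay system: Human PMI in coupled enzyme assay | Times: Enzyme reaction with compound 20 min at room temperature | Medium: HEPES-buffered pH 7.4 with magnesium and detergent | Reagent: Mannose-6-phosphate 1.0 mM (near-saturating) plus 0.22 mM NADP+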

Row | SMILES | activation factor
1 | COc1cccc(C(=O)NCC2(N3CCCCC3)CCCCC2)c1 | inactive: 0.9
2 | CN(C)c1cccc(C(=O)NCC2(N(C)C)CCCCC2)c1 | inactive: 0.9
3 | O=C(OC1CN2CCC1CC2)C(CO)(c1ccccc1)c1ccccc1 (centres undefined) | inactive: 1
4 | CC(C)N1C(=O)CC2(CCN(CCOC(=O)C(O)(c3ccccc3)c3ccccc3)CC2)C1=O | inactive: 1.1
5 | O=C(NCC1(N2CCCCC2)CCCCC1)c1cc([N+](=O)[O-])ccc1Cl | inactive: 1.1
6 | CCN1CCCC(OC(=O)C2(O)c3ccccc3C=Cc3ccccc32)C1 (centres undefined) | inactive: 1
7 | C=CCN1CCN(CCOC(=O)C(O)(c2ccccc2)c2ccccc2)CC1 | inactive: 1.1
8 | Cc1ccccc1C(=O)NCC1(N2CCCCC2)CCCCC1 | inactive: 1
9 | CN(C)C1CCCC1OC(=O)C(O)(c1ccccc1)c1ccccc1 (centres undefined) | inactive: 1.1
